Earlier results in patent publication US5167824A, “Separation by carrier mediated transport” (priority 1990, dated 1992).

Settings: therapeutic / anti-inflammatory; cited from earlier work

COc1ccc2cc([C@H](C)C(=O)O)ccc2c1 [naproxen, (+) S-2-(6-methoxy-2-naphthyl) propionic acid]
potency ratio S(+) vs R(-) enantiomer: 28 times
